Results as given in patent US7205343B2, “Stabilized bioactive preparations and method of use” (priority 1997, dated 2007).

Assay: Gentamicin biodistribution in lung lobes by immunoassay
Type: in vivo, New Zealand white rabbits
Conditions: rabbits, one hour post-administration
Description: Comparison of biodistribution in New Zealand white rabbits at one hour post-administration of 5 mg/kg gentamicin by either IM or LDI methods was performed. The gentamicin was administered in an LDI volume of only 1.8 ml/kg. Individual lobes of the lungs were collected and analyzed quantitatively for gentamicin by an immunoassay method. The lung gentamicin concentrations were ca. 2 orders of magnitude higher following local administration (LDI) than for IM administration. Excellent biodistribution across the lung lobes was observed following either IM or LDI administration.

Q: With gentamicin as the substance, how does the “Gentamicin in lung, Left Lower” value (5 mg/kg IM) read?
A: 6.1 μg gentamicin/g tissue

Q: What about the “Gentamicin in lung, Left Upper” value (5 mg/kg IM) of the same substance?
A: 6.7 μg gentamicin/g tissue

Q: What about the “Gentamicin in lung, Right Lower” value (5 mg/kg IM) of the same substance?
A: 6.4 μg gentamicin/g tissue

Q: And the “Gentamicin in lung, Right Mid” value (5 mg/kg IM)?
A: 6.0 μg gentamicin/g tissue

Q: What about the “Gentamicin in lung, Right Upper” value (5 mg/kg IM) of the same substance?
A: 5.0 μg gentamicin/g tissue

Q: What about the “Gentamicin in lung, Left Lower” value (5 mg/kg LDI, volume 1.8 ml/kg) of the same substance?
A: 412.9 μg gentamicin/g tissue

Q: And the “Gentamicin in lung, Left Upper” value (5 mg/kg LDI, volume 1.8 ml/kg)?
A: 206.3 μg gentamicin/g tissue

Q: And the “Gentamicin in lung, Right Lower” value (5 mg/kg LDI, volume 1.8 ml/kg)?
A: 646.7 μg gentamicin/g tissue

Q: And the “Gentamicin in lung, Right Mid” value (5 mg/kg LDI, volume 1.8 ml/kg)?
A: 564.3 μg gentamicin/g tissue

Q: What about the “Gentamicin in lung, Right Upper” value (5 mg/kg LDI, volume 1.8 ml/kg) of the same substance?
A: 680.5 μg gentamicin/g tissue
